# Data from PubChem BioAssay AID2112 (National Center for Advancing Translational Sciences (NCATS), 2009).
# Where “and” joins values, the source holds several entries; their conditions need not be identical. Identical values can stand only once. Only a part is listed here, and it is no random draw. Calls of active or inactive are those of the source. Calls come from the whole dose curve; as a rule, active = well fitted inhibition curve with a large enough effect; inconclusive = small, poorly fitted or top-dose-only effect, or effect the other way, or another doubt; inactive = no such curve, though single readings can be large or run the other way.
# Target: Lysosomal alpha-glucosidase (Homo sapiens) (UniProt P10253)
# Assay: qHTS Assay for Inhibitors and Activators of Human alpha-Glucosidase From Spleen Homogenate;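 note: 0% = enzyme with vehicle and -100% = no enzyme basal signal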
# Settings: 4-MU-alpha-glucoside fluorescence
# From the text: NIH Chemical Genomics Center [NCGC] NIH Molecular Libraries Probe Production Centers Network [MLPCN] MLPCN Grant: R03 MH084841-01 Assay Submitter (PI): Wei Zheng NCGC Assay Overview: Alpha-glucosidase is responsible for the hydrolysis of terminal, non-reducing 1,4-linked alpha-D-glucose residues, which releases alpha-D-glucose. It is a lysosomal hydrolase that is required for the degradation of a small percentage (1-3%) of cellular glycogen in humans. Deficiency of this enzyme results in glycogen-storage disease type II (GSDII), also referred to as Pompe disease, an autosomal recessive disorder. Structurally normal glycogen is accumulated in the lysosomes and cytoplasm in affected patients, primarily in muscle tissues. Excessive glycogen storage within lysosomes may interrupt normal functioning of other organelles and leads to cellular injury. In turn, this leads to enlargement and dysfunction of the entire organ involved (eg: cardiomyopathy and muscle weakness). It has been reported that the improper folding and trafficking of alpha-glucosidase resulting from genetic mutations may account for a significant number of Pompe patients. […] We optimized this alpha-glucosidase assay in 1536-well plate format for identification of novel small molecule inhibitors or activators with structures other than the sugar analogs in order to develop new pharmacological chaperones. In particular, this assay is directed towards discovering compounds active in a more natural setting, tissue homogenate, that may have been missed by screens of the purified enzyme under more stringent conditions.
# NCGC Assay Protocol Summary: This is a fluorogenic enzyme assay with 4-methylumbelliferyl-alpha-D-glucopyranoside as the substrate and human spleen homogenate containing alpha-glucosidase as the enzyme preparation. Upon hydrolysis of this fluorogenic substrate, the resulting product, 4-methylumbelliferone (which excites at 365 nm and emits at 440 nm) can be detected by a fluorescence plate reader. Data were normalized to the controls for basal activity (without enzyme) and 100% activity (with enzyme). The AC50 values were determined from concentration-response data modeled with the standard Hill equation. Assay buffer: 50 mM citric acid (titrated with potassium phosphate to pH 5.0), 0.01% Tween-20 (pH 5.0 is an optimal condition for this enzyme assay) 1536-well assay protocol for the alpha-glucosidase from human spleen homogenate: (1) Add 2 ul/well spleen homogenate (1 ug) (2) Add 23 nL compounds in DMSO solution. The final titration was 0.5 nM to 58 uM. (3) Add 2 ul of substrate (1 mM final) (4) Incubate at 37 C for 40 min (5) Add 2 ul stop solution (1M NaOH and 1M Glycine mixture, pH 10) (6) Detect the assay plate in a ViewLux plate reader (PerkinElmer) with Ex=365 nm and Em=440nm. Keywords: Alpha-glucosidase, Pompe Disease, pharmacological chaperone, chaperone therapy, high throughput screening, alpha-glucosidase inhibitor, MLSMR, MLSCN, NIH Roadmap, qHTS and NCGC
# [1] = at 79.9 µM (top of the series) unless noted
smiles,measurement,setting,value
COP1(=S)c2c(C)nn(CCC#N)c2N=C(c2ccc(F)cc2)N1C (stereo unspecified),"activity change, negative = inhibition",[1],inactive: -8.87%
O=C(COc1ccccc1)OC1CN2CCC1CC2 (stereo unspecified),"activity change, negative = inhibition",[1],inactive: -5.16%
CCOC(=O)c1ccc(NC(=O)C(C)(CCl)SC)cc1 (stereo unspecified),"activity change, negative = inhibition",[1],inactive: 0.489%
CCC(C)N(CC(C)C)C(=S)SC(NC(C)=O)C(Cl)(Cl)Cl (stereo unspecified),"activity change, negative = inhibition",[1],inactive: -1.95%
CCOC(=O)Nc1ccc([As](=O)(O)O)c(O)c1,"activity change, negative = inhibition",[1],inactive: -6.55%
Cc1cc(SC(NC(=O)c2ccccc2)C(Cl)(Cl)Cl)nc(C(C)C)n1 (stereo unspecified),"activity change, negative = inhibition",[1],inactive: -3.39%
CCOC(=O)Nc1cccc([As](=O)(O)O)c1,"activity change, negative = inhibition",[1],inactive: 2.01%
O=P(Nc1ccccn1)(c1cccc2ccccc12)c1cccc2ccccc12,"activity change, negative = inhibition",[1],inactive: -0.754%
Cc1cc(SC(NC=O)C(Cl)(Cl)Cl)ncn1 (stereo unspecified),"activity change, negative = inhibition",[1],inactive: 7.99%
CN(N=O)C(=N)N[N+](=O)[O-],"activity change, negative = inhibition",[1],inactive: -0.359%
O=[N+]([O-])c1ccc(Nc2ccc(Oc3ccc([N+](=O)[O-])cc3[N+](=O)[O-])cc2)c([N+](=O)[O-])c1,"activity change, negative = inhibition",[1],inactive: 10.8%
O=[As](O)(c1ccc(O)cc1)c1ccccc1O,"activity change, negative = inhibition",[1],inactive: -5.14%
C[As](=O)(O)c1cccc(C(=O)O)c1,"activity change, negative = inhibition",[1],inactive: 1.74%
Cc1ccc(OP(=O)(Nc2ccc([N+](=O)[O-])cn2)Oc2ccc(C)cc2)cc1,"activity change, negative = inhibition",[1],inactive: 2.58%
Cc1ccc2nc3c(c(C)c2c1)CC(C(Cl)Cl)S3 (stereo unspecified),"activity change, negative = inhibition",[1],inactive: 1.74%
ClCCSc1nnc(-c2cccnc2)o1,"activity change, negative = inhibition",[1],inactive: 5.66%
CC(C)c1ccc(OP(=O)(Nc2ccccn2)Oc2ccccc2F)cc1 (stereo unspecified),"activity change, negative = inhibition",[1],inactive: -5.89%
CC(C)NC(=O)NP(=O)(Oc1ccccc1)Oc1ccccc1,"activity change, negative = inhibition",[1],inactive: -1.46%
CCN(CC)C(=S)SC(NC=O)C(Cl)(Cl)Cl (stereo unspecified),"activity change, negative = inhibition",[1],inactive: 6.57%
O=[N+]([O-])c1cc([N+](=O)[O-])c(-c2ccn[nH]2)s1,"activity change, negative = inhibition",[1],inactive: 1.76%
Cc1c2c(nc3ccccc13)SC(C(Cl)Cl)C2 (stereo unspecified),"activity change, negative = inhibition",[1],inactive: -16.6%
O=C(OC1CN2CCC1CC2)C12CC3CC(CC(C3)C1)C2 (stereo unspecified),"activity change, negative = inhibition",[1],inactive: -4.36%
Cc1cc(=O)[nH]c(N[N+](=O)[O-])n1,"activity change, negative = inhibition",[1],inactive: 2.72%
COc1ccc2nc(NP(=O)(c3ccccc3)c3ccccc3)sc2c1,"activity change, negative = inhibition",[1],inactive: -8.34%
COc1cc(I)ccc1[As](=O)(O)O,"activity change, negative = inhibition",[1],inactive: -1.09%
COc1ccc(N/C(=N/P(=O)(N2CCOCC2)N2CCOCC2)N2CCOCC2)cc1,"activity change, negative = inhibition",[1],inactive: 8.31%
O=C(OC1CN2CCC1CC2)c1ccc(Cl)cc1 (stereo unspecified),"activity change, negative = inhibition",[1],inactive: 1.19%
CN(C(=O)Cc1ccc(Cl)c(Cl)c1)[C@@H]1CC[C@]2(CCCO2)C[C@H]1N1CCCC1,"activity change, negative = inhibition",[1],inactive: -2.06% and inactive: 8.22%
O=[As](O)(O)c1cccnc1,"activity change, negative = inhibition",[1],inactive: -4.59%
COc1cc(C(=O)NCC2(N3CCOCC3)CCCCC2)cc(Cl)c1OC(C)C,"activity change, negative = inhibition",[1],inactive: 2.82%
Cc1cccc(OCC(=O)OC2CN3CCC2CC3)c1 (stereo unspecified),"activity change, negative = inhibition",[1],inactive: 5.87%
O=[As](O)(c1cccc(O)c1)c1cccc(O)c1,"activity change, negative = inhibition",[1],inactive: -0.212%
Cc1ccc(NCCc2c([N+](=O)[O-])cc([N+](=O)[O-])cc2[N+](=O)[O-])cc1,"activity change, negative = inhibition",[1],inactive: -14.1%
Nc1cccc2c([As](=O)(O)O)cccc12,"activity change, negative = inhibition",[1],inactive: 3.35%
CCCOP(=S)(Nc1nc(N)cc(=O)[nH]1)OCCC,"activity change, negative = inhibition",[1],inactive: -0.844%
COc1cc(C2NCCC3(OCCO3)C2(C)C)cc(OC)c1OC (stereo unspecified),"activity change, negative = inhibition",[1],inactive: 0.541%
CCOP(=O)(Nc1cccc2ccccc12)OCC,"activity change, negative = inhibition",[1],inactive: -0.443%
CCOP1(=S)c2c(C)nn(CCC#N)c2N=C(c2ccccc2F)N1C (stereo unspecified),"activity change, negative = inhibition",[1],inactive: -5.56%
O=P(Nc1nccs1)(Oc1ccccc1)Oc1ccccc1,"activity change, negative = inhibition",[1],inactive: 0.0744%
O=P(Nc1nccs1)(c1ccccc1)c1nc2ccccc2s1 (stereo unspecified),"activity change, negative = inhibition",[1],inactive: 2.41%
CS(=O)(=O)c1cc([N+](=O)[O-])c2no[n+]([O-])c2c1,"activity change, negative = inhibition",[1],inactive: 0.837%
Nc1ccccc1[As](=O)(O)c1ccccc1,"activity change, negative = inhibition",[1],inactive: 2.69%
O=C(O)COc1ccc([As](=O)(O)O)cc1[N+](=O)[O-],"activity change, negative = inhibition",[1],inactive: -9.61%
NC(=O)Nc1ccc([As](=O)(O)O)cc1,"activity change, negative = inhibition",at 29.1 µM (top of the series),inactive: -4.6%
same,"activity change, negative = inhibition",at 79.9 µM (top of the series),inactive: -2.32% and inactive: 8.38%
O=[N+]([O-])CC(O)c1ccc([N+](=O)[O-])cc1 (stereo unspecified),"activity change, negative = inhibition",[1],inactive: -1.47%
CCOP1(=S)c2c(C)nn(CCC#N)c2N=C(c2ccc(F)cc2)N1C (stereo unspecified),"activity change, negative = inhibition",[1],inactive: 1.89%
O=[N+]([O-])c1ccc2c(c1)nnn2O,"activity change, negative = inhibition",[1],inactive: 5.42%
Cc1nn(-c2ccccc2)c2c1P(=O)(N1CCOCC1)N(C)C(c1ccccc1)=N2 (stereo unspecified),"activity change, negative = inhibition",[1],inactive: -1.81%
CC1CCC(C(C)C)C(OP(=O)(Nc2ccccn2)c2ccccc2)C1 (stereo unspecified),"activity change, negative = inhibition",[1],inactive: -6.66%
CN(C)C1(CNC(=O)c2ccc(S(C)(=O)=O)cc2)CCCCC1,"activity change, negative = inhibition",[1],inactive: -5.82%
O=C(/C=C/c1ccccc1)OC1CN2CCC1CC2 (stereo unspecified),"activity change, negative = inhibition",[1],inactive: -2.04%
O=P1(Nc2ncccn2)COc2ccccc2OC1,"activity change, negative = inhibition",[1],inactive: 0.678%
Nc1cccc([As](=O)(O)c2ccccc2)c1,"activity change, negative = inhibition",[1],inactive: 1.49%
Cc1ccc(OCC(=O)OC2CN3CCC2CC3)cc1 (stereo unspecified),"activity change, negative = inhibition",[1],inactive: -1.52%
O=[As](O)(c1cccs1)c1cccs1,"activity change, negative = inhibition",[1],inactive: 4.49%
O=P1(Nc2ccc(Br)cn2)COc2ccccc2OC1,"activity change, negative = inhibition",[1],inactive: -0.592%
O=P1(Nc2ccccn2)COc2ccccc2OC1,"activity change, negative = inhibition",[1],inactive: 3.76%
CCOP(=O)(Nc1ccc(C)cn1)OCC,"activity change, negative = inhibition",[1],inactive: -3.5%
CN(CCCl)Cc1cc(Cl)c(NC2=NCCN2)c(Cl)c1,"activity change, negative = inhibition",[1],inactive: 1.83% and inactive: -10.3%
Clc1n[nH]nc1-c1nn[nH][15n]1,"activity change, negative = inhibition",[1],inactive: -18.6%
CC(C)(C)C(=O)NC(Sc1ncccn1)C(Cl)(Cl)Cl (stereo unspecified),"activity change, negative = inhibition",[1],inactive: 0.0881%
O=[As](O)(c1ccccc1Br)c1ccccc1Br,"activity change, negative = inhibition",[1],inactive: -11.2%
CC(C)C(=O)NC(Sc1ccccc1)C(Cl)(Cl)Cl (stereo unspecified),"activity change, negative = inhibition",[1],inactive: -11.7%
O=P(Nc1nccs1)(c1ccccc1)c1ccccc1,"activity change, negative = inhibition",[1],inactive: 1.86%
c1nnnn1CCn1cnnn1,"activity change, negative = inhibition",[1],inactive: -1.87%
